We go through one compound from ChEMBL document CHEMBL3808290, “Discovery of Potent, Orally Bioavailable Inhibitors of Human Cytomegalovirus” (ACS Med Chem Lett, 2016).

Molecules are shown by their SMILES.

Data set [1] in a line: Metabolic stability of compound in rat hepatocytes relative to hepatic blood flow. As to conditions: read-out: Stability. Format: ADME, cell-based, Hepatocyte.
Data set [2] is filed under the species Rattus norvegicus. Nature of the data set: Clearance in rat relative to hepatic blood flow. The conditions noted are these: in vivo. Format: ADME, organism-based, Liver.
Data set [3] in a line: Metabolic stability of compound in human hepatocytes relative to hepatic blood flow. Format: ADME, cell-based, Hepatocyte. The conditions noted are these: read-out: Stability.

`CC(O)(c1cccc(C(F)(F)F)c1)c1nc(-n2ccc(NC(=O)c3cscn3)cc2=O)c[nH]1` (stereo not drawn): the hepatic extraction ratio in data set [1] came out at 0.095; in data set [3], 0.17. Further, the CL in data set [2] is reported as 24%.
